Experimental data as given in ChEMBL document CHEMBL3638998, “17Beta-hydroxysteroid dehydrogenase type 1 inhibitors for the treatment of hormone-related diseases” (2013).

Target: T1, 17-beta-hydroxysteroid dehydrogenase type 2 (Homo sapiens, UniProt P37059)
T1 sequence (P37059 whole entry): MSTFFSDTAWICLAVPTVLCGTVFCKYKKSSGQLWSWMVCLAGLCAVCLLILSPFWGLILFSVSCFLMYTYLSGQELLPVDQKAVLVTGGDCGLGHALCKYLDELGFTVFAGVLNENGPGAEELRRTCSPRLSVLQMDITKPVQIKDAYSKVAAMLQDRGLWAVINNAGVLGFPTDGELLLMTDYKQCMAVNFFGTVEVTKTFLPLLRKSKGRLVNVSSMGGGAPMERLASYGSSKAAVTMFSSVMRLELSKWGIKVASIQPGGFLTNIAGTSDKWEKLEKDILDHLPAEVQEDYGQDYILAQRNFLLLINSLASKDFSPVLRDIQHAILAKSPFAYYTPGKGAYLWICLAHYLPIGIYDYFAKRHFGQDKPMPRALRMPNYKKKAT
Assay: Radioactivity Assay: The determination of IC50 values was performed with enzyme isolated from human placenta (Luu-The, V. et al., J. Steroid Biochem. Mol. Biol., 55:581-587 (1995): Sam, K. M. et al., Drug Des Discov., 15:157-180 (1997)). The radioactivity is determined by means of scintillation measurement.

IC50: 583 nM
Compound: Oc1cccc(-c2ccc3c(-c4ccncc4)c(O)ccc3c2)c1
